Sequences of proteins named here, by UniProt entry; tags and fusion partners are left off.
UniProt Q14145, whole entry: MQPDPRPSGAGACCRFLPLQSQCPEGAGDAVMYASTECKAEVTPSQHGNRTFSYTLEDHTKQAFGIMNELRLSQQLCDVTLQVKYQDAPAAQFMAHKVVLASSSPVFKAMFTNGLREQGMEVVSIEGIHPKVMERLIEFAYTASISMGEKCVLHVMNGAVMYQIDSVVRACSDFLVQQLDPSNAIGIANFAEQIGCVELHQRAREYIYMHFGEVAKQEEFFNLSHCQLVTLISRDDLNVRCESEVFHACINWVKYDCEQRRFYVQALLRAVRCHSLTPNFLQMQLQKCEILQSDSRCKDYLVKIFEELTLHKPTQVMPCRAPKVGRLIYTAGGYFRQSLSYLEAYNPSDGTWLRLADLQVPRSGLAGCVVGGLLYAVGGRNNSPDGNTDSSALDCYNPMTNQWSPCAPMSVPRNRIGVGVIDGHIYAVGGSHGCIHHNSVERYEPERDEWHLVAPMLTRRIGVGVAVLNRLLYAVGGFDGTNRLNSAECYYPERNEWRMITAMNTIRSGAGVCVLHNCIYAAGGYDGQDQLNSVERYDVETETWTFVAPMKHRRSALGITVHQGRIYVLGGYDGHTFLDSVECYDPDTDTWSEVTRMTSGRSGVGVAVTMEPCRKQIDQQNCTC

In patent US9200046B2, “Reporter system for high throughput screening of compounds and uses thereof” (priority 2011, dated 2015):

Target: Nrf2-Keap1 complex (Homo sapiens, UniProt Q14145)

CC1=C(/C=C/C(C)=C/C=C/C(C)=C/C(=O)O)C(C)(C)CCC1 [TRETINON, reference compound]
Activation 100 nL: 71%
Activation 200 nL: 227%
100 nL (luminescence) (Table 2, 100 nL compound, screen run at 16 and 32 μM, 3 hr): 1816
200 nL (luminescence) (Table 2, 200 nL compound, screen run at 16 and 32 μM, 3 hr): 3192
